For data set [1] the following is noted: pooled human serum, 37° C., 7 days.
The nature of data set [2]: Stability studies in PBS pH 7.2 or acetate buffer pH 5.1 at 37° C., HPLC. In kind it is physicochemical. The method, then: The other samples were injected directly into the HPLC.

As for “CBZ-VAL-CIT-PAB-O-(N-AC)-NOR [Compound 5]”, the “Stability Human serum, loss of starting material” value in data set [1] worked out at 0% loss 7 d.

In the case of “CBZ-VAL-CIT-PAB-OCO-(1S, 2R)-(N-ACETYL)NOREPHEDRINE [Compound 10]”, the “Stability in aqueous environments (in words)” value in data set [2] is given as “unstable”.

Source of the values: patent US7553816B2, “p-amidobenzylethers in drug delivery agents” (priority 2001, dated 2009).
